High-throughput results (PubChem BioAssay)
Cneo AK release – Cryptococcus neoformans cell lysis inducers, primary screen, AK release luminescence, single concentration; C. neoformans lysis, adenylate kinase release luminescence, 4 h; normalised: neutral wells 0, clomiphene wells 100; lysis activity, % at 15 µM; 360,000 tested, 0.2% active; AID 651654, 2012;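 active means mean lysis activity across replicates of at least 80%, whatever share of replicates individually reach that level; inactive means mean lysis activity below 80%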
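Assay system: log-phase C. neoformans yeast / Quantity: yeast cell density of 5 × 10^6 cells/mL / Medium: fresh YPD growth medium / Compound: single dose / Timing: static 4 h at 37 °C with compound, 1 h detection / Measured by: adenylate kinase release luminescence / Read-out: lysis from increased AK signal / Benchmarks: Clomiphene as positive lysis control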
E-sel inducer – E-selectin induction in HUVECs, primary screen, imaging, HUVEC, immunofluorescence imaging, single point | normalized: neutral wells 0, TNF-alpha wells 100 | activation, % at 7.58 µM | 260,000 tested, 0.37% active | AID 686992, 2013;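 active means mean E-selectin-positive cell signal at least 10% of the positive control, reached in at least 60% of replicates, without over 20% cell loss; inconclusive means no rule given, readout overlaps actives, possibly toxicity-flagged; inactive means the rest, including those meeting only one limit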
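material = human umbilical vein endothelial cells (HUVEC), E-selectin induction | quantity = 3,000 cells/well | medium = EGM-2 growth medium on 0.1% gelatin-coated wells | technique = immunofluorescence imaging | read-out basis = % PE-positive cells | control set = TNF-alpha positive control, DMSO neutral control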
DENV2 CPE rescue – inhibitors of DENV2 cytopathic effect, primary screen, cell-based, plate reader, single concentration; DENV2-infected cells, cytopathic effect rescue; CPE inhibition, % at 9.99 µM; 350,000 tested, 1.7% active; AID 651640, 2012; in the data active means CPE inhibition above about 20%, passing the limit was not always enough; inconclusive means no clear call, values can overlap the other calls; tested in BHK-21 cells;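 further: 0% = median of neutral control wells and 100% = median of positive control wells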
Yeast UUG start – modulators of start codon recognition fidelity in yeast; S. cerevisiae UUG-firefly luciferase reporter, luminescence/redox ratio; activity score, % at 18.7 µM; hit rate 0.13% among 350,000; AID 602363;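 active = replicate mean at a twofold rise or more, about +100% in these data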;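 note: firefly luciferase made from a UUG start codon reports start codon fidelity; reporter light over untreated wells divided by growth signal over untreated wells; some hits fall short of that in this replicate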
* hit, by the source's call. Shown are actives, neighbours in structure and some others; about 1.8% of the full set was active somewhere.

What do the screens show for `C[C@@H]1CN([C@H](C)CO)C(=O)c2cccc(NC(=O)Nc3ccc4c(c3)OCO4)c2O[C@@H]1CN(C)Cc1ccc(-c2ccccc2)cc1`?
Cneo AK release: 5.2; E-sel inducer: -3.3; DENV2 CPE rescue: -0.6; Yeast UUG start: 1.5

What do the screens show for `C[C@H](CO)N1C[C@H](C)[C@H](CN(C)Cc2ccc(-c3ccccc3)cc2)Oc2c(NC(=O)Nc3ccc4c(c3)OCO4)cccc2C1=O`?
Cneo AK release: -0.1; E-sel inducer: -0.5; DENV2 CPE rescue: 20.8*; Yeast UUG start: 12.8

How did C[C@H](CO)N1C[C@H](C)[C@H](CN(C)Cc2ccc(-c3ccccc3)cc2)Oc2ccc(NC(=O)Nc3ccc4c(c3)OCO4)cc2C1=O do in these assays?
Cneo AK release: 3.4; E-sel inducer: 2.6; DENV2 CPE rescue: 24.3*; Yeast UUG start: -12.7

What do the screens show for `C[C@@H]1CN([C@@H](C)CO)C(=O)c2cccc(NC(=O)Nc3ccc4c(c3)OCO4)c2O[C@@H]1CN(C)C`?
Cneo AK release: -2.3; DENV2 CPE rescue: 23.5*; Yeast UUG start: -9.2

Results for C[C@@H]1CN([C@H](C)CO)C(=O)c2cccc(NC(=O)Nc3ccc4c(c3)OCO4)c2O[C@@H]1CN(C)C ?
Cneo AK release: -2.3; DENV2 CPE rescue: -9.4; Yeast UUG start: -13.3

What do the screens show for `C[C@H]1CN([C@@H](C)CO)C(=O)c2cccc(NC(=O)Nc3ccc4c(c3)OCO4)c2O[C@@H]1CN(C)Cc1ccccc1`?
E-sel inducer: 0.3; DENV2 CPE rescue: 39.2*

What do the screens show for `Cc1ccc(S(=O)(=O)N[C@H]2CC[C@H](CCn3cc(-c4cccc(F)c4)nn3)O[C@@H]2CO)cc1`?
Cneo AK release: 2.7; E-sel inducer: 1.6; DENV2 CPE rescue: -6.5; Yeast UUG start: -0.1

What do the screens show for `C[C@@H]1CN([C@@H](C)CO)C(=O)c2cc(NS(C)(=O)=O)ccc2O[C@@H](C)CCCCO[C@@H]1CN(C)S(=O)(=O)c1ccccc1`?
Cneo AK release: 1.2; E-sel inducer: -0.1; DENV2 CPE rescue: -7.7; Yeast UUG start: -6.5

How did CO[C@H]1CN(C)C(=O)c2cc(NS(C)(=O)=O)ccc2OC[C@@H](C)N(C(=O)c2ccc3c(c2)OCO3)C[C@H]1C do in these assays?
Cneo AK release: -2.7; E-sel inducer: -0.1; DENV2 CPE rescue: 27.5*; Yeast UUG start: -7.5

What do the screens show for `CO[C@@H]1CN(C)C(=O)c2cc(NS(C)(=O)=O)ccc2OC[C@@H](C)N(C(=O)c2ccc3c(c2)OCO3)C[C@@H]1C`?
Cneo AK release: -1.5; E-sel inducer: inconclusive; DENV2 CPE rescue: -6.4; Yeast UUG start: -3.0

Results for CO[C@H]1CN(C)C(=O)c2cc(NS(C)(=O)=O)ccc2OC[C@H](C)N(C(=O)c2ccc3c(c2)OCO3)C[C@@H]1C ?
Cneo AK release: -1.3; E-sel inducer: -0.1; DENV2 CPE rescue: 41.7*; Yeast UUG start: -12.2

Results for C[C@H](CO)N1C[C@H](C)[C@@H](CN(C)S(=O)(=O)c2ccc(Cl)cc2)Oc2ccc(NC(=O)C3CC3)cc2CC1=O ?
Cneo AK release: -1.2; E-sel inducer: 0.1; DENV2 CPE rescue: 30.4*; Yeast UUG start: 3.9

What do the screens show for `CC(C)NC(=O)Nc1ccc2c(c1)CC(=O)N([C@H](C)CO)C[C@H](C)[C@H](CN(C)S(=O)(=O)c1ccc(Cl)cc1)O2`?
Cneo AK release: 88.8*; DENV2 CPE rescue: 12.4; Yeast UUG start: 16.2

What do the screens show for `CC(C)NC(=O)Nc1ccc2c(c1)CC(=O)N([C@@H](C)CO)C[C@@H](C)[C@H](CN(C)S(=O)(=O)c1ccc(F)cc1)O2`?
Cneo AK release: -5.3; E-sel inducer: 5.9; DENV2 CPE rescue: 45.3*; Yeast UUG start: 3.9

What do the screens show for `CC(C)NC(=O)Nc1ccc2c(c1)CC(=O)N([C@H](C)CO)C[C@@H](C)[C@H](CN(C)S(=O)(=O)c1ccc(F)cc1)O2`?
E-sel inducer: -2.6; Yeast UUG start: 9.3

The last 4 compounds of the part before open the next one:
Results for C[C@H](CO)N1C[C@H](C)[C@@H](CN(C)S(=O)(=O)c2ccc(Cl)cc2)Oc2ccc(NC(=O)C3CC3)cc2CC1=O ?
Cneo AK release: -1.2; E-sel inducer: 0.1; DENV2 CPE rescue: 30.4*; Yeast UUG start: 3.9

What do the screens show for `CC(C)NC(=O)Nc1ccc2c(c1)CC(=O)N([C@H](C)CO)C[C@H](C)[C@H](CN(C)S(=O)(=O)c1ccc(Cl)cc1)O2`?
Cneo AK release: 88.8*; DENV2 CPE rescue: 12.4; Yeast UUG start: 16.2

What do the screens show for `CC(C)NC(=O)Nc1ccc2c(c1)CC(=O)N([C@@H](C)CO)C[C@@H](C)[C@H](CN(C)S(=O)(=O)c1ccc(F)cc1)O2`?
Cneo AK release: -5.3; E-sel inducer: 5.9; DENV2 CPE rescue: 45.3*; Yeast UUG start: 3.9

What do the screens show for `CC(C)NC(=O)Nc1ccc2c(c1)CC(=O)N([C@H](C)CO)C[C@@H](C)[C@H](CN(C)S(=O)(=O)c1ccc(F)cc1)O2`?
E-sel inducer: -2.6; Yeast UUG start: 9.3

Results for CS(=O)(=O)Nc1ccc2c(c1)[C@H]1C[C@H](CC(=O)NC3CCCCC3)O[C@@H](CO)[C@H]1O2 ?
Cneo AK release: -0.9; E-sel inducer: -0.7; DENV2 CPE rescue: -7.3; Yeast UUG start: -4.6

What do the screens show for `C[C@@H]1CN([C@H](C)CO)C(=O)c2cccc(NC(=O)c3nc4ccccc4s3)c2O[C@H]1CN(C)Cc1ccncc1`?
Cneo AK release: 2.9; DENV2 CPE rescue: -14.8; Yeast UUG start: 4.1

What do the screens show for `O=C(c1cccc(Cl)c1)N1CCC2(CC1)NCCc1[nH]cnc12`?
Cneo AK release: -2.6; DENV2 CPE rescue: 27.1*; Yeast UUG start: -16.7

What do the screens show for `Fc1ccccc1-c1nc(-c2ccc(-c3nn[nH]n3)cc2)no1`?
Cneo AK release: 0.6; E-sel inducer: -0.1; DENV2 CPE rescue: 20.1*; Yeast UUG start: -13.9

What do the screens show for `COc1ccc(NC(=O)C2CCC(CNS(=O)(=O)c3cccs3)CC2)cc1OC` (centres undefined)?
E-sel inducer: -0.6; DENV2 CPE rescue: 30.9*

How did COc1ccc(NC(=O)C2CCC(CNS(=O)(=O)c3cccs3)CC2)cc1 (centres undefined) do in these assays?
DENV2 CPE rescue: 9.0

How did CC(C)(C)c1ccc(C(=O)Nc2cccc3ncccc23)cc1 do in these assays?
Cneo AK release: 0.9; E-sel inducer: 0.0; DENV2 CPE rescue: -7.3; Yeast UUG start: -21.7

How did CC(=O)Nc1cccc2ncccc12 do in these assays?
Cneo AK release: -0.8; DENV2 CPE rescue: 32.0*; Yeast UUG start: -8.8

Results for COc1cc(NC(C)=O)c2ncccc2c1Br ?
Cneo AK release: -1.1; E-sel inducer: 1.3; DENV2 CPE rescue: 89.1*; Yeast UUG start: -11.4

Results for COc1ccc(CN2CC3(CN(C(=O)C4CCOCC4)C3)c3c(n(C)c4cc(OC)ccc34)[C@@H]2CO)cc1 ?
E-sel inducer: -0.2; DENV2 CPE rescue: -6.8

How did Cc1ccc(S(=O)(=O)Nc2ccc3c(c2)CC(=O)N([C@@H](C)CO)C[C@@H](C)[C@H](CN(C)Cc2ccccc2)O3)cc1 do in these assays?
Cneo AK release: 2.1; E-sel inducer: -0.2; DENV2 CPE rescue: 7.3; Yeast UUG start: -2.4

Results for O=C(CN1CCOCC1)N[C@H]1CC[C@@H](CCNS(=O)(=O)c2ccccc2F)O[C@@H]1CO ?
E-sel inducer: -0.8; Yeast UUG start: 3.0

How did COc1ccc(NS(=O)(=O)c2cccs2)cn1 do in these assays?
Cneo AK release: 2.6; E-sel inducer: -2.1; DENV2 CPE rescue: 23.6*; Yeast UUG start: -5.3

Results for COc1ccc(NS(=O)(=O)c2ccc(Cl)s2)cn1 ?
E-sel inducer: 13.3; DENV2 CPE rescue: -2.6

Results for O=C(Nn1c(-c2ccncc2)nc2ccccc2c1=O)c1ccccc1Br ?
E-sel inducer: 113.6*; DENV2 CPE rescue: -3.0

What do the screens show for `O=C(Nn1c(-c2ccncc2)nc2ccccc2c1=O)c1ccc(Br)cc1`?
DENV2 CPE rescue: -1.8

What do the screens show for `Cc1noc(C)c1NC(=O)N(C)C[C@@H]1Oc2ccc(NC(=O)C3CCCCC3)cc2CC(=O)N([C@H](C)CO)C[C@H]1C`?
Cneo AK release: 43.2; E-sel inducer: 0.0; DENV2 CPE rescue: 2.2; Yeast UUG start: 3.5
